Measurements reported in ChEMBL document CHEMBL5150028, “Discovery of JNJ-64264681: A Potent and Selective Covalent Inhibitor of Bruton's Tyrosine Kinase” (J Med Chem, 2022).

Sequences of proteins named here, by UniProt entry; tags and fusion partners are left off. A change or cut given only in a name is not applied to a line headed by its entry.
UniProt Q06187: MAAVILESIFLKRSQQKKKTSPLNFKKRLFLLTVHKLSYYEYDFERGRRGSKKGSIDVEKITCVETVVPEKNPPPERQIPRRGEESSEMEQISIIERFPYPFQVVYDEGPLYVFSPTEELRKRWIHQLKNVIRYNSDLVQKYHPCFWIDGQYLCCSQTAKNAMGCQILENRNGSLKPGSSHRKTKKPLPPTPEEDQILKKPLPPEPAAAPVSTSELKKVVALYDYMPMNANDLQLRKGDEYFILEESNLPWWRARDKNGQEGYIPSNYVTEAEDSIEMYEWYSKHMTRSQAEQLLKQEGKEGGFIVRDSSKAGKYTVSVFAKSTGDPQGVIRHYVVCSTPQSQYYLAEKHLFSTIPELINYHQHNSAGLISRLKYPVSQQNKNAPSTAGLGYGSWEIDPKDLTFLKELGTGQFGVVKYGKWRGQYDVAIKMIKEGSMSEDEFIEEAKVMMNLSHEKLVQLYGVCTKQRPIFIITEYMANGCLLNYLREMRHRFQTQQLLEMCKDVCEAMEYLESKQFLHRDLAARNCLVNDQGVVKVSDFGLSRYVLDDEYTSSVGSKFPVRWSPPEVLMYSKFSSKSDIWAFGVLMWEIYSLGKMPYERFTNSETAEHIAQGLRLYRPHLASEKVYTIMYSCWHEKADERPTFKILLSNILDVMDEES

Target: Tyrosine-protein kinase BTK (Homo sapiens, UniProt Q06187)
Assay: Inhibition of full length N-terminal GST-tagged human BTK expressed in Sf21 cells assessed as ratio of Kinact/Ki using NH2-KKKAPFSWYLPEEG as substrate in presence of ATP measured for 2 hrs by microplate reader assay

Ratio: 15900 M⁻¹ s⁻¹
Structure (SMILES): C=CC(=O)N1CC[C@@H](NC(=O)c2sc3nccc4c3c2NC(=O)N4c2ccc(Oc3ccccc3)cc2C)C1
